ChEMBL document CHEMBL1125665, “Quaternary salts of 2-[(hydroxyimino)methyl]imidazole. 5. Structure-activity relationships for side-chain nitro-, sulfone-, amino-, and aminosulfonyl-substituted analogues for therapy against anticholinesterase intoxication” (1991)
Where “and” joins values, the source holds several entries; their conditions need not be identical. Equal values may be shown once.

Experiments:
[1] = molecular target: T1, Acetylcholinesterase (Mus musculus) (UniProt P21836); test: Antidotal activity measured in mice exposed to soman; activity expressed as the no. of survivors at 24 hr out of population of 10 mice exposed intramuscularly at a dose 1/16 of 2LD50 of the compound
T1 sequence (whole entry): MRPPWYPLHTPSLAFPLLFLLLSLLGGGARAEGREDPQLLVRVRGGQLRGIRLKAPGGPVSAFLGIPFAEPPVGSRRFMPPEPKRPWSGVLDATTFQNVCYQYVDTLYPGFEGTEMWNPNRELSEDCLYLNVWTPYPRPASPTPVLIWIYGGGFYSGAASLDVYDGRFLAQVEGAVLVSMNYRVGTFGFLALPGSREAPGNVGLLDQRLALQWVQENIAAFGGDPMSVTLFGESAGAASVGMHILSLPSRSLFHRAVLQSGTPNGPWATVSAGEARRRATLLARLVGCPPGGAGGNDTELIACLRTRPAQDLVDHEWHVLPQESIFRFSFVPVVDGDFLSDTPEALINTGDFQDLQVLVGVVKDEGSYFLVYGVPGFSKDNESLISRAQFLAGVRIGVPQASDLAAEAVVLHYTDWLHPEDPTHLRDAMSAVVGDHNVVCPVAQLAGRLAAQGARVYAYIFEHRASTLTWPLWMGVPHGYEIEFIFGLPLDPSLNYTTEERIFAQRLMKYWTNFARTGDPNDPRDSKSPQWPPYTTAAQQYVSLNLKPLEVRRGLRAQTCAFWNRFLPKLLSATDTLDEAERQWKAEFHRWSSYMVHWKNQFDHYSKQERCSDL

[2] = molecular target: T1, Acetylcholinesterase (Mus musculus); test: antidotal activity measured in mice exposed to soman; activity expressed as the no. of survivors at 24 hr out of population of 10 mice exposed intramuscularly at the dose 1/4 of 2LD50 of the compound
[3] = molecular target: T1, Acetylcholinesterase (Mus musculus); test: Antidotal activity measured in mice exposed to tabun; activity expressed as the no. of survivors at 24 hr out of population of 10 mice each exposed intramuscularly at the dose 1/16 of 2LD50 of the compound

Compound	No. of survivors [1]	No. of survivors [2]	No. of survivors [3]
C[n+]1ccn(COCCCCS(C)(=O)=O)c1/C=N/O	2	6	0
CCS(=O)(=O)CCOCn1cc[n+](C)c1/C=N/O	4	8	3
CC(CS(C)(=O)=O)OCn1cc[n+](C)c1/C=N/O (stereo not drawn)	8	5	8
CC(C)N(CCn1cc[n+](C)c1/C=N/O)C(C)C	0	1	0
C[n+]1ccn(CCC[n+]2cccc(C(=O)c3ccccc3)c2)c1/C=N/O	3	9	7
C[n+]1ccn(COCCCS(C)(=O)=O)c1/C=N/O	9	10	5
CCS(=O)(=O)CC(C)OCn1cc[n+](C)c1/C=N/O (stereo not drawn)	3	8	1
C[n+]1ccn(COCCS(=O)(=O)c2ccccc2)c1/C=N/O	4	8	0
CC[n+]1ccn(COC(C)C(C)S(C)(=O)=O)c1/C=N/O (stereo not drawn)	2	10	0
C[n+]1ccn(COCCS(C)(=O)=O)c1C(N)=O	1	7	2
CN(CCOCCn1cc[n+](C)c1/C=N/O)S(=O)(=O)C(F)(F)F	0	1	0
CCS(=O)(=O)CCn1cc[n+](C)c1/C=N/O	6	5	1
CC(OCn1cc[n+](C)c1/C=N/O)C(C)S(C)(=O)=O (stereo not drawn)	7 and 9	7 and 6	10 and 9
C[n+]1ccn(CCN(Cc2ccccc2)S(=O)(=O)C(F)(F)F)c1/C=N/O	3	4	0
CCN(CCn1cc[n+](C)c1/C=N/O)S(=O)(=O)C(F)(F)F	10	5	8
CCN(CCCn1cc[n+](C)c1/C=N/O)S(=O)(=O)C(F)(F)F	4	7	2
C[n+]1ccn(CCCS(C)(=O)=O)c1/C=N/O	2	6	1
CCCN(CCn1cc[n+](C)c1/C=N/O)S(=O)(=O)C(F)(F)F	5	6	8
CC[n+]1ccn(CCN(C)S(=O)(=O)C(F)(F)F)c1/C=N/O	5	7	2
CCC(Cn1cc[n+](C)c1/C=N/O)N(C)C (stereo not drawn)	0	0	0
C[n+]1ccn(CCCN(Cc2ccccc2)S(=O)(=O)C(F)(F)F)c1/C=N/O	4	5	0
